The values below come from patent US20220273673A1, “BONE-BINDING COMPOUNDS” (BRIGHAM YOUNG UNIVERSITY, priority 2019, published 2022).

This experiment deals with MC3T3-E1 cells. The experiment in a line: Alkaline phosphatase activity assay (p-nitrophenyl phosphate) in osteoblasts. Format: cell-based. As to conditions: 50 ng/ml rhBMP-2; osteogenic media. As to the method:
To test whether BBA-1 retained any of the pro-osteogenic action of CSA-90, MC3T3-E1 cells were differentiated in osteogenic media with either 5 μM CSA-90 or BBA-1, with or without 50 ng/ml rhBMP-2. A p-nitrophenyl phosphate assay was performed for alkaline phosphatase activity (Sigma-Aldrich) and normalized to day-3 cells grown in osteogenic media and α-MEM media. Assays were performed in triplicate with two independent repeats.

B1: rhBMP-2: recombinant human bone morphogenetic protein-2 (protein, UniProt P12643 283-396, looked up)
Bone morphogenetic protein 2: QAKHKQRKRLKSSCKRHPLYVDFSDVGWNDWIVAPPGYHAFYCHGECPFPLADHLNSTNHAIVQTLVNSVNSKIPKACCVPTELSAISMLYLDENEKVVLKNYQDMVVEGCGCR
In the case of B1, the “Alkaline phosphatase expression, rhBMP-2” value is “increased alkaline phosphatase expression”.
